## scFv variants of Ab-14 (light chain) against a SARS-CoV-2 spike peptide

The target is the same throughout: PDVDLGDISGINAS, from the HR2 region of SARS-CoV-2 spike.

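The parent was found by panning a naive human phage display library on the peptide. Variants in AAYL50 differ from the parent at up to three CDR positions; double and triple changes were sampled at random. The scFvs were displayed on barcoded MATa yeast, the peptide on MATalpha yeast. Mating (16 h, 30 °C) was followed by selection of diploids and sequencing of their barcodes. The ratio of observed to expected reads was calibrated, replicate by replicate, on BCL2-family standards whose Kd was known from biolayer interferometry. Each pool was mated in three replicate cultures.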

Each scFv is VH, three GGGGS repeats, VL, as in the parent Ab-14, and differs from it in the CDRs of the light chain only.
VH: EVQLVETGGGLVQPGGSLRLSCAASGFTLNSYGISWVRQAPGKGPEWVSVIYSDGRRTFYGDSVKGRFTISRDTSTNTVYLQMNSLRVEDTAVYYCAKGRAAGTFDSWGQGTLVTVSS
VL: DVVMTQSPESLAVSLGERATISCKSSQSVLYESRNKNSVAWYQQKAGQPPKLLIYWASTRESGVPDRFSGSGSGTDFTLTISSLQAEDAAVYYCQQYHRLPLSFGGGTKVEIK

Changes read parent residue, position, new residue, counted from the first residue of the VL shown. Every variant below is changed at S38 of the VL (sequential numbering). Affinities are written as log10 Kd with Kd in nM; a lower number is a better binder. Averages over replicates are reported, and they cover detected replicates only. A pair that was not seen in that replicate is written "ND"; this usually means weak binding, but a binder can also be missed. As a blank, each scFv also met three strains without target: over library AAYL50, 18% of these pairings were detected, typically at 4.19 and seldom below 2.99.

The variant E32D/S38F/Q95W showed ND, ND, ND.
The variant K24Q/S38I/R60Q showed 2.82, ND, ND.
The variant S38Y/E61I/Q95V showed ND, ND, ND.
The variant K24C/R34C/S38E showed ND, 4.85, 4.00 (mean 4.42).
The variant L30G/S38W/T59H showed 4.03, 3.71, 4.61 (mean 4.12).
The variant S33V/S38G/W56H showed 1.01, 1.23, 1.02 (mean 1.09).
The variant S33P/R34I/S38A showed 0.70, 1.03, 1.02 (mean 0.92).
The variant S38D/E61V/Q95F showed 4.59, 4.01, ND (mean 4.30).
The variant S25P/S38E/V39A showed ND, ND, 3.74.
The variant S26Q/L30Q/S38G showed ND, ND, ND.
The variant S38D/A40L showed ND, ND, ND.
The variant N35G/S38N/T59Q showed 0.75, 1.00, 1.10 (mean 0.95).
The variant K24Y/S38H/S103N showed ND, ND, ND.
The variant Q27I/Y31N/S38G showed 1.38, 1.35, 1.11 (mean 1.28).
The variant S28T/S38G/V39I showed ND, ND, ND.
The variant S38H showed 2.42, 3.43, 3.35 (mean 3.06).
The variant S38C/Q95H/P101Y showed ND, ND, ND.
The variant S25H/S26A/S38N showed 0.80, 0.90, 0.85 (mean 0.85).
The variant V29C/S38G showed 1.92, 1.52, 1.73 (mean 1.73).
The variant Q27M/S38L showed 4.30, ND, ND.
The variant K36Y/S38W/Q95I showed ND, 2.73, ND.
The variant S38T/H98D/L102H showed ND, ND, ND.
The variant S38Q/E61R/R99I showed ND, ND, ND.
The variant S38V/R99K showed ND, 4.71, ND.
The variant Q27N/V29H/S38E showed 1.26, 1.42, 1.81 (mean 1.49).
The variant S26M/N35Y/S38D showed ND, ND, 2.39.
The variant S38Y/V39F showed ND, 3.72, 4.91 (mean 4.31).
The variant S38D/Y97K showed ND, ND, ND.
The variant N37I/S38M/L102H showed ND, ND, ND.
The variant S38E/S58R/Y97L showed ND, 5.18, ND.
The variant N37G/S38G/S58G showed ND, 4.09, 4.09 (mean 4.09).
The variant V29E/S38E/A57W showed ND, ND, 4.14.
The variant L30A/S38E/Y97F showed 2.32, 2.12, 2.15 (mean 2.20).
The variant S38L/V39R/S103W showed ND, ND, ND.
The variant S33C/R34I/S38A showed ND, 4.80, ND.
The variant S33T/K36P/S38K showed ND, ND, ND.
The variant S38F/T59W/R60V showed ND, ND, ND.
The variant S38P/H98R showed 2.82, 2.32, 2.71 (mean 2.62).

From the AlphaSeq antibody data of Engelhart et al. 2022 (doi:10.1038/s41597-022-01779-4), copy in the FLAb collection.